Test system: OVCAR3 CCNE1 amplified xenograft

**Q.** Which “body weight change (in words)” value (300 ppm chow, initially) does the source give for `Cc1cc2c(C(N)=O)c(N)n(-c3c(C)ccc(O)c3C)c2nc1C` [RP-6306, (S)-2-amino-1-(3-hydroxy-2,6-dimethyl-phenyl)-5,6-dimethyl-pyrrolo[2,3-b]pyridine-3-carboxamide] here?
**A.** slight body weight loss

**Q.** And the tolerability (formulated in chow, 21-day treatment period)?
**A.** well tolerated
